Data taken from PubChem BioAssay AID624202 (National Center for Advancing Translational Sciences (NCATS), 2012).
The entries are a selection whose mix differs from that of the whole data set. Activity calls are given as the source filed them. Calls follow the shape of the dose curve; as a rule, active = well fitted activation curve with a large enough effect; inconclusive = small, poorly fitted or top-dose-only effect; inactive = no such curve, though single readings can be large or run the other way.

Experiment: qHTS Assay to Identify Small Molecule Activators of BRCA1 Expression; also: nearly all actives have a fitted effect of over 80% in size
Conditions: MCF7-BRCA1-FFLuc reporter, luminescence, 48 h, scaled: vehicle 0%, 10 µM genistein 100%; at 46.1 µM (top of the series)

Compound	activation
Cc1ccc(Nc2c([N+](=O)[O-])cc([N+](=O)[O-])cc2[N+](=O)[O-])cc1	inactive: -66.8%
Fc1ccccc1NC1CCN(Cc2ccccc2)CC1	inactive: 5.86%
Cc1ccc(C(=O)NCC2(N3CCCCC3)CCCCC2)o1	inactive: 0.3%
Cc1ccc(NC2(C#N)CCN(Cc3ccccc3)CC2)cc1	inactive: -3.97%
CCC(c1nnnn1C1CCCCC1)N1CCC(n2c(=O)[nH]c3ccccc32)CC1 (stereo not given)	inactive: 4.3%
CC(=O)N(c1ccccc1)C1CCNCC1	inactive: -3.95%
COc1cccc(C(c2nnnn2C2CCCCC2)N2CCC(n3c(=O)[nH]c4ccccc43)CC2)c1OC (stereo not given)	inactive: -27.2%
O=c1[nH]c2ccccc2n1C1CCN(C(c2ccnc3ccccc23)c2nnnn2C2CCCCC2)CC1 (stereo not given)	inactive: -42.7%
COc1cc(OC)cc(C(=O)NCC2(N3CCCCC3)CCCCC2)c1	inactive: -3.5%
CC(C)(C)n1nnnc1C(c1cccc2ccccc12)N1CCC(n2c(=O)[nH]c3ccccc32)CC1 (stereo not given)	inactive: -62.7%
CN(C)C1(CNC(=O)c2cccc(C#N)c2)CCCCC1	inactive: 5.23%
O=c1[nH]c2ccccc2n1C1CCN(C(c2ccccc2)c2nnnn2C2CCCC2)CC1 (stereo not given)	inactive: -19.1%
CCCN1CCC(Nc2cc(OC)cc(OC)c2)CC1	inactive: -22.5%
Cc1cc(N(CCCl)CCCl)ccc1C=O	inactive: -48.7%
O=C(NCC1(N2CCOCC2)CCCCC1)c1ccccc1	inactive: 3.91%
c1ccc(CN2CCC(Nc3ccccc3)CC2)cc1	inactive: -7.21%
CCOC(=O)C(CC)C1=NC(C)(C)Cc2ccccc21.O=[N+]([O-])c1cc([N+](=O)[O-])c(O)c([N+](=O)[O-])c1 (stereo not given)	inactive: 3.8%
N#Cc1ccc(C(=O)NCC2(N3CCCCC3)CCCCC2)cc1	inactive: 17%

Compound	activation
O=C(NCC1(N2CCOCC2)CCCCC1)c1ccccc1[N+](=O)[O-]	inactive: 0.515%
O=C(NCC1(N2CCOCC2)CCCCC1)c1ccc([N+](=O)[O-])cc1	inactive: -27.7%
CC(C)(C)OC(=O)N1CCC(N(C(=O)c2ccccc2)c2ccc(Cl)cc2)CC1	inactive: -36.7%
O=C(O)c1cccc(Nc2c([N+](=O)[O-])cc([N+](=O)[O-])cc2[N+](=O)[O-])c1	inactive: -25%
O=c1[nH]c2ccccc2n1C1CCN(C(c2cccs2)c2nnnn2C2CCCC2)CC1 (stereo not given)	inactive: -34.1%
O=C(OC1CN2CCC1CC2)C1c2ccccc2C=Cc2ccccc21 (stereo not given)	inactive: -18.2%
CCc1cc(C(=O)NCC2(N3CCCCC3)CCCCC2)sc1C	inactive: -78.9%
CCCCn1nnnc1C(c1cccc(OC)c1OC)N1CCC(n2c(=O)[nH]c3ccccc32)CC1 (stereo not given)	inactive: -46.5%
COc1cccc(C(c2nnnn2C(C)(C)C)N2CCC(n3c(=O)[nH]c4ccccc43)CC2)c1OC (stereo not given)	inactive: -21.9%
CCOC(=O)N1CCC(Nc2ccc(C)cc2)CC1	inactive: 5.69%
N/C(=N\O)c1c(N)no[n+]1[O-]	inactive: 3.56%
O=c1[nH]c2ccccc2n1C1CCN(C(c2cccs2)c2nnnn2C2CCCCC2)CC1 (stereo not given)	inactive: -44.9%
O=c1[nH]c2ccccc2n1C1CCN(C(c2ccnc3ccccc23)c2nnnn2C2CCCC2)CC1 (stereo not given)	inactive: -0.248%
COc1ccc(C(=O)NCC2(N3CCOCC3)CCCCC2)cc1OC	inactive: -2.68%
COc1cc(C(=O)NCC2(N3CCOCC3)CCCCC2)cc(OC)c1C	inactive: -9.73%
CCCCn1nnnc1C(c1ccccc1)N1CCC(n2c(=O)[nH]c3ccccc32)CC1 (stereo not given)	inactive: 0%
O=C(NCC1(N2CCOCC2)CCCCC1)c1cc(Br)ccc1Cl	inactive: -26.8%
